For 50 compounds, activity change, negative = inhibition results are on record in PubChem BioAssay AID463254 (National Center for Advancing Translational Sciences (NCATS), 2010).

By UniProt entry, the sequences of proteins in these tests, tags left out. Where a name states a change or a piece, a line headed by the entry shows the natural chain unless it says otherwise.
UniProt O75604: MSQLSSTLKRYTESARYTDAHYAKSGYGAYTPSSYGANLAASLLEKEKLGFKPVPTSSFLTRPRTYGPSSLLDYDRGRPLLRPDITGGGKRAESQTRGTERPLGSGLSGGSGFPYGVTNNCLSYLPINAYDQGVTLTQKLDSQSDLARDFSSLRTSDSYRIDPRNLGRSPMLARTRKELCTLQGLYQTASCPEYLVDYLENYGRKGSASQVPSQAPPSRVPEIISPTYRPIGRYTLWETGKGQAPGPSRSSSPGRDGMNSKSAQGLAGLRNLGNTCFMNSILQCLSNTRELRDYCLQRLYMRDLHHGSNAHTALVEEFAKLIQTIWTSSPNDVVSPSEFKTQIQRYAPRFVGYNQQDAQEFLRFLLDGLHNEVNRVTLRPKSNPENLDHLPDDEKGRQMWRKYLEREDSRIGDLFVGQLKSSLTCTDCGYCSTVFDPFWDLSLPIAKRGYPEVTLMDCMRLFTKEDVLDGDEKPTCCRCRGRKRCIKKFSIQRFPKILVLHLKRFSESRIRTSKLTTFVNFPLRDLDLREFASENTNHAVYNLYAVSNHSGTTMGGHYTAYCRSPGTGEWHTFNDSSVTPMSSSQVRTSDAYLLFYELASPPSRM

“And” between values parts separate entries of the source, which are not always exact repeats. Equal values may be shown once. Only a part is listed here, and it is no random draw. The source made the active and inactive calls. The call rests on the fitted dose curve; in most records, active means well fitted inhibition curve with a large enough effect; inconclusive means small, poorly fitted or top-dose-only effect, or effect the other way; inactive means flat fitted curve, though single readings scatter.

This experiment addresses Ubiquitin carboxyl-terminal hydrolase 2 (Homo sapiens) (UniProt O75604). The experiment is described as follows: qHTS Assay for Inhibitors of Ubiquitin-specific Protease USP2a Using CHOP2 as the Reporter. Conditions: USP2 core, Ub-CHOP2 coupled fluorogenic reporter, 485/531; at 38.3 µM (top of the series). An excerpt: NIH Molecular Libraries Screening Centers Network [MLSCN] NIH Chemical Genomics Center [NCGC] MLSCN Grant: XO1-MH079852-01 PI Name: Nicholson, Ben. Progenra Inc, Malvern, PA NCGC Assay Overview: Homeostasis of cellular proteins is maintained through a combination of synthesis and degradation. The pathway that accounts for the majority of protein degradation is the ubiquitin-proteasomal pathway. Ubiquitin (Ub) is highly conserved in all cells and the generation of a multi-Ub chain typically targets proteins for degradation by the proteasome. However, ubiquitination is highly reversible and dynamic. Deubiquitination, the reverse process, is catalyzed through the action of enzymes referred to as isopeptidases or deubiquitinating enzymes (DUBs). This group of enzymes is collectively responsible for maintaining adequate pools of free ubiquitin and regulating the ubiquitination status of cellular proteins. The class of DUBs referred to as the ubiquitin-specific proteases (USP) family functions endoproteolytically to cleave Ub chains from a wide range of protein substrates. USP2a deubiquitinates fatty acid synthase (FASN) which has recently been identified as an emerging oncology target. To identify inhibitors of USP2a a cell-free assay was employed. […] The reporter enzyme chosen is an enterokinase called CHOP2, which is activated when the Ub is cleaved by USP2. The free and now activated reporter can subsequently act on its reporter substrate. Thus, this coupled assay gives a fluorescent read-out at excitation/emission wavelengths of 485/531. The assay was developed by Progenra, Inc. and has been licensed for sale by LifeSensors, Inc. as Ub-CHOP2-Reporter-Kit (#PR1101).
NCGC Assay Protocol Summary: The assay buffer, prepared fresh at the day of the assay, contains 20mM Tris-HCl pH 8.0, 2mM CaCl2, 2mM beta-Mercaptoethanol, 0.05% CHAPS. 3ul of 20nM (10nM final) USP2 core, which is stored on ice, is dispensed into a medium-binding black solid Kalypsys 1,536 well plate using the Kalypsys dispenser. The assay plate is then pinned with 23nL compound with the Kalypsys pintool in columns 5-48. The controls are pinned as follows: column 1 two-fold dilutions of 2M NEM in duplicate; column 2 2M NEM (final concentration 38.2mM); column 3&4 DMSO. The assay plate is incubated at RT for 30min. Subsequently, 1.5uL of 100nM (25nM final) Ub-CHOP2 and 1.5uL of 100nM (25nM final) Reporter Substrate (both stored on ice and protected from light) were dispensed into the plate using the Kalypsys dispenser. Plates were read after 60min RT incubation on a ViewLux (Perkin Elmer) plate reader using the following wavelengths Ex 485nm /Em 531nm. Data were normalized to the to AC100 inhibition (NEM). Concentration-response curves were fitted to the normalized data and the concentration-response curves were then classified based on curve quality (r2), response magnitude and degree of measured activity. The time zero reading was used to flag fluorescence artifacts. Keywords: ubiquitination, deubiquitination, proteases, profluorescent, MLSMR, MLPCN, NIH Roadmap, qHTS, NCGC
(In general: In qHTS, concentration-response curves come from the screen itself.)
For the compound `O=C(OC1CN2CCC1CC2)c1cccc([N+](=O)[O-])c1` (stereo not given), the activity change, negative = inhibition was inactive: -1.37%.

On to `O=C(COc1ccccc1)OC1CN2CCC1CC2` (stereo not given), for which the activity change, negative = inhibition is inactive: 0.522%.

Take `O=C(Nc1ccncc1[N+](=O)[O-])c1ccc([N+](=O)[O-])cc1[N+](=O)[O-]`: the activity change, negative = inhibition is inactive: -0.449%.

With `COP1(=S)c2c(C)nn(CCC#N)c2N=C(c2ccc(F)cc2)N1C` (stereo not given), the activity change, negative = inhibition is inactive: 1.1%.

As for `COc1ccc(N/C(=N/P(=O)(N2CCOCC2)N2CCOCC2)N2CCOCC2)cc1`, the activity change, negative = inhibition was inactive: 8.36%.

Regarding `COc1ccc2nc(NP(=O)(c3ccccc3)c3ccccc3)sc2c1`, the activity change, negative = inhibition is inactive: -0.416%.

Take `COc1cc(I)ccc1[As](=O)(O)O`: the activity change, negative = inhibition is inactive: -0.881%.

Take `O=C(OC1CN2CCC1CC2)C12CC3CC(CC(C3)C1)C2` (stereo not given): the activity change, negative = inhibition is inactive: 1.77%.

Take `Cc1cc(=O)[nH]c(N[N+](=O)[O-])n1`: the activity change, negative = inhibition is inactive: 12%.

As to `Cc1c2c(nc3ccccc13)SC(C(Cl)Cl)C2` (stereo not given), the activity change, negative = inhibition is inactive: 3.22%.

Regarding `CC(C)NC(=O)NP(=O)(Oc1ccccc1)Oc1ccccc1`, the activity change, negative = inhibition was inactive: -4.68%.

As to `CCN(CC)C(=S)SC(NC=O)C(Cl)(Cl)Cl` (stereo not given), the activity change, negative = inhibition was inactive: 4.01%.

For the compound `O=[N+]([O-])c1cc([N+](=O)[O-])c(-c2ccn[nH]2)s1`, the activity change, negative = inhibition was inactive: 2.38%.

As to `CC(C)c1ccc(OP(=O)(Nc2ccccn2)Oc2ccccc2F)cc1` (stereo not given), the activity change, negative = inhibition was inactive: 1.11%.

Regarding `ClCCSc1nnc(-c2cccnc2)o1`, the activity change, negative = inhibition is inactive: 6.2%.

On to `Cc1ccc2nc3c(c(C)c2c1)CC(C(Cl)Cl)S3` (stereo not given), for which the activity change, negative = inhibition is inactive: 3%.

Regarding `Cc1ccc(OP(=O)(Nc2ccc([N+](=O)[O-])cn2)Oc2ccc(C)cc2)cc1`, the activity change, negative = inhibition is inactive: 0.934%.

`O=[As](O)(c1ccc(O)cc1)c1ccccc1O`: the activity change, negative = inhibition is inactive: 1.66%.

For the compound `C[As](=O)(O)c1cccc(C(=O)O)c1`, the activity change, negative = inhibition is inactive: 3.6%.

Consider `COc1cc(C(=O)NCC2(N3CCOCC3)CCCCC2)ccc1OCC(C)C`, for which the activity change, negative = inhibition was inactive: -8.78%.

With `CCN(N=Nc1nonc1N)c1nonc1N`, the activity change, negative = inhibition was inactive: 2.59%.

Take `Nc1cccc2ccc([As](=O)(O)O)cc12`: the activity change, negative = inhibition was inactive: 2.82%.

Take `O=[N+]([O-])c1cc([N+](=O)[O-])c(CCN2CCOCC2)c([N+](=O)[O-])c1`: the activity change, negative = inhibition was inactive: 3%.

Turning to `Cc1cc(SC(NC(=O)c2ccc(F)cc2)C(Cl)(Cl)Cl)ncn1` (stereo not given), the activity change, negative = inhibition was inactive: -0.66%.

`CCOP(=O)(Nc1ccccc1)OCC`: the activity change, negative = inhibition is inactive: 0.18% and inactive: 0.738%.

Consider `Cc1ccc(NP(=O)(Oc2ccccc2F)Oc2ccccc2F)nc1`, for which the activity change, negative = inhibition is inactive: 9.68%.

As for `CC(=O)Nc1ccc([As](=O)(O)O)cc1`, the activity change, negative = inhibition was inactive: 5.15%.

Regarding `O=C(O)c1ccccc1[As](=O)(O)O`, the activity change, negative = inhibition is inactive: 1.78%.

Take `O=P(Nc1nc2ccc(Cl)cc2s1)(c1ccccc1)c1ccccc1`: the activity change, negative = inhibition is inactive: -0.713%.

In the case of `Nc1cc(N)c2nonc2c1[N+](=O)[O-]`, the activity change, negative = inhibition was inactive: -0.511%.

Take `CC(C)CC(=O)NC(Sc1ccc(Cl)cc1)C(Cl)(Cl)Cl` (stereo not given): the activity change, negative = inhibition is inactive: 0.513%.

In the case of `Oc1ccccc1CNc1ccccn1`, the activity change, negative = inhibition was inactive: 4.22%.

Turning to `O=C(NC(Sc1ccncn1)C(Cl)(Cl)Cl)c1ccccc1` (stereo not given), the activity change, negative = inhibition is inactive: -1.59%.

As for `Cc1c2non([O-])c-2c(C)[n+](=O)[n+]1[O-]`, the activity change, negative = inhibition was inactive: -3.65%.

Regarding `COc1ccccc1OP(=O)(Nc1ccc(C)cn1)Oc1ccccc1OC`, the activity change, negative = inhibition was inactive: -0.347%.

For `Cc1ccc(OP(=O)(Nc2nccs2)Oc2ccc(C)cc2)cc1`, the activity change, negative = inhibition is inactive: -0.168%.

As to `CN1CCCC(OC(=O)C(c2ccccc2)c2ccccc2)C1` (stereo not given), the activity change, negative = inhibition is inactive: -0.165%.

As to `Clc1ccc(Cl)c(NC2=NCC(CBr)S2)c1` (stereo not given), the activity change, negative = inhibition is inactive: 0.0188%.

Regarding `NC(=O)c1cc([N+](=O)[O-])cc([N+](=O)[O-])c1N`, the activity change, negative = inhibition was inactive: -0.256%.

In the case of `CN(C(=O)Cc1ccc(Cl)c(Cl)c1)[C@H]1CCCC[C@H]1N1CCCC1`, the activity change, negative = inhibition was inactive: 0.969%.

Regarding `Cc1ccc(N/C(=N/P(=O)(N2CCOCC2)N2CCOCC2)N2CCOCC2)cc1`, the activity change, negative = inhibition was inactive: 3.26%.

With `CC(C)=N/N=C(\N)N[N+](=O)[O-]`, the activity change, negative = inhibition was inactive: 3.52%.

For the compound `CN(C)C(=O)OCCc1n(C)cc[n+]1C`, the activity change, negative = inhibition was inactive: 3.94%.

For `CC1CCN(C(=O)Oc2c(Cl)cc(Cl)c3cccnc23)CC1`, the activity change, negative = inhibition was inactive: 2.37%.

For the compound `Nc1ccc([As](=O)(O)c2ccc(N)cc2)cc1`, the activity change, negative = inhibition was inactive: 0.783%.

Consider `C[N+]1=C2C=CC=CC=C2SC12C([N+](=O)[O-])=CC([N+](=O)[O-])=C[C-]2[N+](=O)[O-]` (stereo not given), for which the activity change, negative = inhibition was inactive: 3%.

With `CCN(/C(=N/P(=O)(N1CCOCC1)N1CCOCC1)N1CCOCC1)c1ccc(OC)cc1`, the activity change, negative = inhibition is inactive: 1.56%.

In the case of `CC(=O)N1C2C3N(C(C)=O)C1C1N(C(C)=O)C(C(N1C(C)=O)N3C(C)=O)N2C(C)=O`, the activity change, negative = inhibition is inactive: 0.895%.

Turning to `O=[N+]([O-])c1cccc2n[nH]nc12`, the activity change, negative = inhibition is inactive: 5.24%.

As for `Cc1ccc(NP(=O)(Oc2ccccc2)Oc2ccccc2)nc1`, the activity change, negative = inhibition was inactive: 0.976%.
